This experiment deals with rat EP4 receptor (Rattus norvegicus, UniProt P43114). The experiment is described as follows: Evaluation test on rat EP4 receptor affinity ([3H]PGE2 binding assay). The note with it: read-out: rat EP4 receptor affinity (Ki); comparison compound, same test method as Table 1.

Protein sequences, listed by entry. Tags and fused reporters are not part of them.
UniProt P43114, whole entry: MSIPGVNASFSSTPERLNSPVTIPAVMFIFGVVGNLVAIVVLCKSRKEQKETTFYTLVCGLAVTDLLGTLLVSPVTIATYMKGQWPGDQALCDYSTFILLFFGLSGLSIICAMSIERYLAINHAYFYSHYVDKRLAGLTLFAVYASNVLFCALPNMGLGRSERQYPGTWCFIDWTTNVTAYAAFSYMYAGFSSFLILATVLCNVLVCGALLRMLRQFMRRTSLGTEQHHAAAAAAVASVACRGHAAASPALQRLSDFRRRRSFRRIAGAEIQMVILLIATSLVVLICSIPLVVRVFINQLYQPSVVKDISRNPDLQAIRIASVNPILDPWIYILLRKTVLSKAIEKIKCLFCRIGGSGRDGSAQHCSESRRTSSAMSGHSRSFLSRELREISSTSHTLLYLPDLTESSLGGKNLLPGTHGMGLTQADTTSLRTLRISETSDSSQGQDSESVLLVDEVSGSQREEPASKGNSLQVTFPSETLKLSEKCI

The record followed here is patent US20110028463A1, “AMIDE COMPOUNDS” (Astellas Pharma Inc., priority 2007, published 2011).

As a reminder, the Ki is a measure of affinity in units of concentration, obtained from inhibition or displacement.

Consider `C[C@H](NC(=O)c1cc(Cl)cnc1N(C)Cc1ccc(Cl)cc1)c1ccc(C(=O)O)cc1`, for which the inhibition constant (Ki) is 48 nM.
